Assay results as given in patent publication EP0975608B1.

Amino acid sequences for entries named in this document (tags omitted). Residues count along the entry.
UniProt P05106, 27-788 limits assumed: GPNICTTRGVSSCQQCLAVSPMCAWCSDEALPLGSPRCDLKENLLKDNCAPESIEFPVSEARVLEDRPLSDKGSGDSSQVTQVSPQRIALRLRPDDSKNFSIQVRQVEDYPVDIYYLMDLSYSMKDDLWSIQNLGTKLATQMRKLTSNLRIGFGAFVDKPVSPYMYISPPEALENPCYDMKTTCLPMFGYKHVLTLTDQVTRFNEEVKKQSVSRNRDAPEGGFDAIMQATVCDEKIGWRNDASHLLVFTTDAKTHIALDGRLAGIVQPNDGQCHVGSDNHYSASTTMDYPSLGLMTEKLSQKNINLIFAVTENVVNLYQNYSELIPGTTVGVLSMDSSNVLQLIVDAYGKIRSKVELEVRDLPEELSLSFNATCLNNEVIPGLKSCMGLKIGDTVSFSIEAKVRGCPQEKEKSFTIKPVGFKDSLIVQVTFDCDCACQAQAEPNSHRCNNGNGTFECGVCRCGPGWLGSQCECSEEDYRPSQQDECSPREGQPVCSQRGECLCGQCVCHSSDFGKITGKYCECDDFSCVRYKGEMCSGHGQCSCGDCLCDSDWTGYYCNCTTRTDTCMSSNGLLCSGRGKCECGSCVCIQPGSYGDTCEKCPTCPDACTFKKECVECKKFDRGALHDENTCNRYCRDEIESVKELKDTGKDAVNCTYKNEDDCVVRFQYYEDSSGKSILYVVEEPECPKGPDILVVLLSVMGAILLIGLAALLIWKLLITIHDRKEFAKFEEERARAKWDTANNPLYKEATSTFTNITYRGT
UniProt P08514, 32-887 limits assumed: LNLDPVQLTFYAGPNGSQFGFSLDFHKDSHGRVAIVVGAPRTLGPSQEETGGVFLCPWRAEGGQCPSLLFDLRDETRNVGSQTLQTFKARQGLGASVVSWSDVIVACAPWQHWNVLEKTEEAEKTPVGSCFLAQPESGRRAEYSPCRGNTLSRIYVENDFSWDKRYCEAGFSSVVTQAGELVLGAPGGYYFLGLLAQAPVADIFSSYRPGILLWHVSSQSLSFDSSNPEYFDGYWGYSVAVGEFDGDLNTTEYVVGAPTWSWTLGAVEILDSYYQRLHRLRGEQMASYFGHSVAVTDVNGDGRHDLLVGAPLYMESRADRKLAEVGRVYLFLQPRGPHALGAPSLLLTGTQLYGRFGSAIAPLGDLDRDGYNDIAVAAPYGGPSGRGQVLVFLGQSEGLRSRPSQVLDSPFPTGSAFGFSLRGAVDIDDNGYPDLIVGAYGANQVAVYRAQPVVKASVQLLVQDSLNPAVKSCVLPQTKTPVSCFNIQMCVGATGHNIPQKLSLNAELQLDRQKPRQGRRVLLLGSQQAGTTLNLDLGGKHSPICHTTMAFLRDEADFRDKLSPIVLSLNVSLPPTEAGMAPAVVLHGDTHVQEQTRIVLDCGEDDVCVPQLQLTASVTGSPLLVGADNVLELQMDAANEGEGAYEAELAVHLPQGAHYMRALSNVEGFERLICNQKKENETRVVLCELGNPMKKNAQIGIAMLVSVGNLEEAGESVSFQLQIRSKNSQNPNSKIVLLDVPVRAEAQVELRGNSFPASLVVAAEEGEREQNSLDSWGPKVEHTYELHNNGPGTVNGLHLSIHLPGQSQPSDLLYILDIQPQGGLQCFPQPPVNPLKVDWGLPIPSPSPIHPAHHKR

Key:
[1] = system: ex vivo platelet aggregation; experiment: Mouse ID50: ex vivo platelet aggregation after oral dosing; conditions: mice dosed at 100 mg/kg orally, sacrificed at 1 or 3 hours
GPIIb/IIIa = GPIIb/IIIa (Homo sapiens, UniProt P05106+P08514); experiment: ADP induced platelet aggregation (PA) in citrated plasma; conditions: read-out: IC50(PA)

SMILES | Mouse ID50 [1] | IC50 (GPIIb/IIIa)
CN1C(=O)CN(CCC(=O)O)C(=O)c2cc(C#Cc3ccc(C(=N)N)cc3)ccc21 | 20 mg/kg | –
CN1C(=O)CN(CCC(=O)O)C(=O)c2c1ccc(NC(=O)c1ccc(C(=N)N)cc1)c2Cl | 7.2 mg/kg | 85 nM
CCN1C(=O)CN(CCC(=O)O)C(=O)c2cc(OCc3ccc(C(=N)N)cc3)ccc21 | 20.3 mg/kg | 76 nM
CN1C(=O)CN(CCC(=O)O)C(=O)c2cc(NC(=O)c3ccc(C(=N)N)cc3)ccc21 | 9.5 mg/kg | 59 nM
